Values quoted from earlier work, collected in PMC9694544, “Conteltinib (CT-707) in patients with advanced ALK-positive non-small cell lung cancer: a multicenter, open-label, first-in-human phase 1 study” (BMC Medicine, 2022).

Legend:
[1] = system: patients with ALK-positive NSCLC; conditions: cited from earlier work
[2] = system: ALK-positive NSCLC; conditions: cited from earlier work; for ORR / median PFS: at the dose ≥ RP2D
[3] = patients who received crizotinib previously

For `CCc1cc2c(cc1N1CCC(N3CCOCC3)CC1)C(C)(C)c1[nH]c3cc(C#N)ccc3c1C2=O` [alectinib], the “incidence of grade ≥ 3 TRAEs” value [1] is listed as 26%, the ORR ([2]; ALK TKI-naïve patients) is listed as 93.5% and the “median PFS” value ([2]; ALK TKI-naïve patients) is listed as 34.8 months. The ORR [2, 3] was 56.7% and the “median PFS” value [2, 3] was 9.6 months.
In the case of `C[C@@H](Oc1cc(-c2cnn(C3CCNCC3)c2)cnc1N)c1c(Cl)ccc(F)c1Cl` [Crizotinib], the “incidence of grade ≥ 3 TRAEs” value [1] is listed as 24%, the rash [1] is listed as 11% and the visual effects [1] is listed as 64%. The response rates ([2]; locally advanced or metastatic NSCLC harboring ALK rearrangement, across multiple studies) was “approximately 60%”.

Like-named read-outs stand apart in the source and are kept apart here.
